One substance from US20030113828A1, “Compositions and methods for modulating Syk function” (priority 2001, published 2003) can be followed below.

The term Kd denotes a measure of binding affinity in units of concentration.

The target in this test is Syk (Homo sapiens, UniProt P43405). Put plainly: Surface plasmon resonance (BIAcore) of Syk/integrin cytoplasmic domain interactions. Type of test: binding. The arrangement: Syk(6-370) was cleaved from GST-Syk(6-370) coated Glutathione Sepharose™ 4B by thrombin; GST (N, cleaved yes); made in house; host or cells: bacteria (pGEX vector, IPTG induction). The conditions noted are these: judged by both affinity chromatography and surface plasmon resonance; read-out: Kd of integrin β cytoplasmic domains for the tandem SH2 domains. The protocol: GST fusion proteins were produced in accordance with procedures described by Shiue et al. ((1995) Mol Cell Biol 15:272-281). Briefly, exponential growth phase bacteria were induced with 0.1 mM IPTG for 4 hours at 37° C. Cells were then pelleted, resuspended in lysis buffer (PBS with 0.5% TritonX-100, 1 mM DTT, 1 mM PMSF, and protease inhibitors (Boehringer Mannheim, Germany)), and sonicated at 4° C. Lysates were clarified at 20,000×g for 30 minutes, and supernatant was incubated with Glutathione Sepharose™ 4B (Amersham Pharmacia Biotech, Piscataway, N.J.) pre-equilibrated in lysis buffer. The mixture was incubated overnight at 4° C., then washed 4× in elution buffer (100 mM Tris pH 8.0, 100 mM NaCl, 1 mM DTT, 1 mM PMSF) without GSH. Final elution was carried out in elution buffer containing 20 mM Glutathione. For BIAcore analysis of Syk binding to integrin cytoplasmic domains, Syk(6-370) was cleaved from GST-Syk(6-370) coated Glutathione Sepharose™ 4B by thrombin (1 Unit/mg protein) overnight at 4° C.
BIAcore 3000 (BIAcore, Uppsala, Sweden) was used for real time kinetic analysis of the Syk/integrin cytoplasmic domain interactions. Experimental procedures, integrin cytoplasmic domain modifications, and data analysis was performed in accordance with procedures described by Yan et al. ((2001) J Biol Chem 276:28164-28170).
In general terms: In SPR one partner is held on a chip, and binding of the other changes the refractive index at the surface.

For the substance “β1: integrin β1 cytoplasmic domain model protein”, the Kd worked out at 76 nM.
